Drawing on ChEMBL document CHEMBL5729726, “Tricyclic compounds as histone methyltransferase inhibitors” (2023), this text covers IC50 for one compound.

Chains of the proteins cited; added tags and fusions are not shown. Residues count along the entry.
UniProt Q96KQ7, 2-1210 limits assumed: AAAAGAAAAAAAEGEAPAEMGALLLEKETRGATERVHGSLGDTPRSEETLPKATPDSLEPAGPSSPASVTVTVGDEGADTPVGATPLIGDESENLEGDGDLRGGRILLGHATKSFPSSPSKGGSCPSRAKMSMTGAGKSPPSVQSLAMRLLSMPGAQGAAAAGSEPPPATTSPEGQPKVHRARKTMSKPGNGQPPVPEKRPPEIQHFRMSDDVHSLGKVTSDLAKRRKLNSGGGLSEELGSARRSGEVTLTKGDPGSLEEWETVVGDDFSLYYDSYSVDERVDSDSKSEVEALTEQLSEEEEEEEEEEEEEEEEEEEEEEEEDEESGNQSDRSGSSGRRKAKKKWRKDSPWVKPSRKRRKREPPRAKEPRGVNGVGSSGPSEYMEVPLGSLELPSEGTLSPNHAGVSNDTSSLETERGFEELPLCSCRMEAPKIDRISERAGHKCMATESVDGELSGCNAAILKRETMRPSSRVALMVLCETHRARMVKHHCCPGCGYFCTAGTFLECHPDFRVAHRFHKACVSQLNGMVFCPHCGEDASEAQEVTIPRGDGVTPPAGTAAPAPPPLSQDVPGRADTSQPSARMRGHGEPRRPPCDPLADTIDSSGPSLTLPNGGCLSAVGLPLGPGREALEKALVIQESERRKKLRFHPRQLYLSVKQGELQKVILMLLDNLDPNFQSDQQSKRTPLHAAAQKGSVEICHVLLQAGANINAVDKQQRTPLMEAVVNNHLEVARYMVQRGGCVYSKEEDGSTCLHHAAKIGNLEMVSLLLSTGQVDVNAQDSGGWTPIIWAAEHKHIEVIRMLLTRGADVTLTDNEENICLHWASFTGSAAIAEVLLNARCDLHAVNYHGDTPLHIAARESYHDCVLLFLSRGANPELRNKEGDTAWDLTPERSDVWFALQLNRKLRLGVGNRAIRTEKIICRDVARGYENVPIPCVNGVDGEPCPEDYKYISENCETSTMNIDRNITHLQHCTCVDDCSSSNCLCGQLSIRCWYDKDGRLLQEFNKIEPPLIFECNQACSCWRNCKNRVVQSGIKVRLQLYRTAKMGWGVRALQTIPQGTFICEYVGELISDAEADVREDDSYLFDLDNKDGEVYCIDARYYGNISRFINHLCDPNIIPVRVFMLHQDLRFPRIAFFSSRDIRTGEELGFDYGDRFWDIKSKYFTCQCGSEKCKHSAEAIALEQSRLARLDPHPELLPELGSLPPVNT

One may read the IC50 as the concentration that gives 50% inhibition. Low readings indicate inhibition by little substance, high ones a need for much substance.

For this experiment, the target named is Histone-lysine N-methyltransferase EHMT2 (Homo sapiens, UniProt Q96KQ7). The experiment is described as follows: Enzymatic Activity Assay: For the assay, the following buffer was used to set up reactions: 50 mM Tris-HCl pH9, 50 mM NaCl, 0.01% Tween-20 and 1 mM DTT (added fresh prior to starting the reactions). The assay is set up by adding a final concentration of 0.15 nM G9a, 15 uM S-adenosyl-methionine and 100 nM biotinylated histone 3 peptide (1-21). The reaction is incubated at rt for 1 hour and subseque.

`COc1cc2nc3c(c(N(C(N)=O)C4CCNCC4)c2cc1OC)CCC3`: the IC50 worked out at 355 nM.
